Reference: ChEMBL document CHEMBL4507308

Chains of the proteins cited; added tags and fusions are not shown. Lines headed by an entry give the natural chain unless they say otherwise; changes in a name come on top.
UniProt P41143, whole entry, looked up: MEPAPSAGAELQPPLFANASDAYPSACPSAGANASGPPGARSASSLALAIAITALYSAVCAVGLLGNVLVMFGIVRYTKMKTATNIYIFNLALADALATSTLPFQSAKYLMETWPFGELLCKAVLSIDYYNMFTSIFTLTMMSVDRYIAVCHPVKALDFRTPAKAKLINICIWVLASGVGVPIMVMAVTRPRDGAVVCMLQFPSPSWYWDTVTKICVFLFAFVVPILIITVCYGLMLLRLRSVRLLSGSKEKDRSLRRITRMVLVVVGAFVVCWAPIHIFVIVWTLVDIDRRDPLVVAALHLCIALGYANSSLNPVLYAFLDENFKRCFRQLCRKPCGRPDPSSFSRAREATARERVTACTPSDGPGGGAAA
UniProt Q99720, whole entry, looked up: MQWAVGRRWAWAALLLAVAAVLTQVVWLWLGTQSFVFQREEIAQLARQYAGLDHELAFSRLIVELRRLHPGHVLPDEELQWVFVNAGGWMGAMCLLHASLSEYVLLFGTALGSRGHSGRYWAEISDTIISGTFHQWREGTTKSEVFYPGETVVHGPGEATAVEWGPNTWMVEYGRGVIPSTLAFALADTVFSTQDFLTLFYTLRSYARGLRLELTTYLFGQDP
UniProt P35372, whole entry, looked up: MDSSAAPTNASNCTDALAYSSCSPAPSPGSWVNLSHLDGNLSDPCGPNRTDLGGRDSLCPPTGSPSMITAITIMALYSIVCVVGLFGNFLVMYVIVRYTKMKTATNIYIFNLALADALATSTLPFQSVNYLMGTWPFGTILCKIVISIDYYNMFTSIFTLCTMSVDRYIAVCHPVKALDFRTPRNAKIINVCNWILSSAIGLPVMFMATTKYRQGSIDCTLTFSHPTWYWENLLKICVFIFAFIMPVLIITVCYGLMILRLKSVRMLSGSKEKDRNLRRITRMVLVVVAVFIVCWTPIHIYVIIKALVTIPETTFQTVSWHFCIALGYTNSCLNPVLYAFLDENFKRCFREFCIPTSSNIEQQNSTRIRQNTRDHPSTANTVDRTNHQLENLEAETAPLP
UniProt P41145: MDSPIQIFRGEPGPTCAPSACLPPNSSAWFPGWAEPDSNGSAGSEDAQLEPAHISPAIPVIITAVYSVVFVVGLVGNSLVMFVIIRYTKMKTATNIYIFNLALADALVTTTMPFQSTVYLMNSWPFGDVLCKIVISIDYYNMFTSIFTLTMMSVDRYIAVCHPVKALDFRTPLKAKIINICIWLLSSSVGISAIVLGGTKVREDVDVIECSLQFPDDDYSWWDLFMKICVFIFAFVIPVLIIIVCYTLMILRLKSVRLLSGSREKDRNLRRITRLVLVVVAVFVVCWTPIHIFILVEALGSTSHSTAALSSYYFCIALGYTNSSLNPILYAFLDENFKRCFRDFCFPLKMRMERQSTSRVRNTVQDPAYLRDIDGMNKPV

Legend:
Conditions in all cases: Compound concentration 10.0 uM
[1] = target: Delta-type opioid receptor (Homo sapiens) (UniProt P41143); experiment: GPCRScan assay: inhibition of DOR; parameters: radioligand conc. used [nm] 1.0 – 2.0, parental cells stable HEK
[2] = target: Sigma non-opioid intracellular receptor 1 (Homo sapiens) (UniProt Q99720); experiment: GPCRScan assay: inhibition of Sigma 1; parameters: radioligand conc. used [nm] 4.0 – 5.0, parental cells HEKT
[3] = target: Mu-type opioid receptor (Homo sapiens) (UniProt P35372); experiment: GPCRScan assay: inhibition of MOR
[4] = target: Kappa-type opioid receptor (Homo sapiens) (UniProt P41145); experiment: GPCRScan assay: inhibition of KOR

Measured: inhibition

Cc1cnc(-c2cc(Cl)ccc2F)cc1-n1c(=O)n(CC(N)=O)c2ccccc21
inactive: [1] 17.5% | [2] 13.2% | [3] 47.4% | [4] 13.5%

Cc1cnc(-c2cc(Cl)ccc2F)cc1-n1c(=O)n(CC(N)=O)c2cnccc21
inactive: [1] -4.16% | [2] 50% | [3] 13.7% | [4] -0.979%
